Reference: BindingDB's records for doi:10.1016/j.bmcl.2010.08.118 (Roche Palo Alto, 2010)

Assay: Inhibition of CCR5 by cell-cell fusion inhibition assay

Cc1cc(C#N)nc(C)c1C(=O)N1C[C@H]2CN(CCC(c3ccccc3)C3CCN(S(C)(=O)=O)CC3)C[C@H]2C1 (stereo partly drawn) [4,6-dimethyl-5-((3aR,6aS)-5-(3-(1-(methylsulfonyl)piperidin-4-yl)-3-phenylpropyl)octahydropyrrolo[3,4-c]pyrrole-2-carbonyl)picolinonitrile]
pIC50: 8.92

pIC50: −log10 of the molar value.
